From patent US6846802B2, “Macrocyclic NS3-serine protease inhibitors of hepatitis C virus comprising N-cyclic P2 moieties” (priority 2000, dated 2005)
pKi: −log10 of the molar value. Starred links: 1 amine or outer side, 2 acyl side, 3 side chain; linkers in the order of their positions; H or OH if unused. Positions of bridges follow the written chain, without caps; N, C: chain ends. Non-standard residues stand in square brackets, D forms with d. Residues, ends and D or L forms follow the SMILES beside them. Tic(7-O(CH2)6CO) = O=C([C@@H]1Cc2ccc(OCCCCCCC(=O)[*:3])cc2CN1[*:1])[*:2]; X2 = CCC[C@@H](N[*:1])C(=O)C(=O)[*:2]; X1 = CCC[C@H](N[*:1])C(=O)C(=O)[*:2]; Chg = N[C@H](C(=O)O)C1CCCCC1; Phg = N[C@H](C(=O)O)c1ccccc1

Sequences of proteins named here, by UniProt entry; tags and fusion partners are left off. Residues count along the entry.
UniProt P27958, 1027-1657: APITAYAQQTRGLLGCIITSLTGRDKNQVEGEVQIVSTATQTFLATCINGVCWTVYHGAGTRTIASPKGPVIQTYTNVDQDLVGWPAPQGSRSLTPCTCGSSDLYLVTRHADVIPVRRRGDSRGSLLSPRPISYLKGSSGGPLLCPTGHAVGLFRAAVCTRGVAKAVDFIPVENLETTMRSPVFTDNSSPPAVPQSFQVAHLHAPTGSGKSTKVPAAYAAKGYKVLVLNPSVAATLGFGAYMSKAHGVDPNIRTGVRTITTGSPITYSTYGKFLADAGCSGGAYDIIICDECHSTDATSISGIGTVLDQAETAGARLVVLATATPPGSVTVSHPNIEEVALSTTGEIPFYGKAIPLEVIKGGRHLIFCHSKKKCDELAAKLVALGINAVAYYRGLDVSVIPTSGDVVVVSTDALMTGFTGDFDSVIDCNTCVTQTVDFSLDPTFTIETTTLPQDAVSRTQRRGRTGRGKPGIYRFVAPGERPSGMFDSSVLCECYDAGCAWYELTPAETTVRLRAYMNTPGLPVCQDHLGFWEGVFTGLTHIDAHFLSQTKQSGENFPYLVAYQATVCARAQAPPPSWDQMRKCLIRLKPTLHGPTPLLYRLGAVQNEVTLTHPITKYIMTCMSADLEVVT
UniProt P27958, 1658-1711: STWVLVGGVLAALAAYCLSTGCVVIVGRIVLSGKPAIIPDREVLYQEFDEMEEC

Target: Recombinant heterodimeric HCV NS3/NS4A protease (strain 1a) (Hepatitis C virus genotype 1a, UniProt P27958)
Test: biochemical

`CCC[C@@H](NC(=O)[C@@H]1C[C@@H]2CN1C(=O)[C@H](C1CCCCC1)NC(=O)Cc1cccc(c1)OCCCS2)C(=O)C(=O)NCC(=O)N[C@H](C(=O)N(C)C)c1ccccc1` [Compound 10A] was tested, and the pKi was 4.00 to 7.00.

`CCC[C@H](NC(=O)[C@@H]1C[C@@H]2CN1C(=O)[C@H](C1CCCCC1)NC(=O)Cc1cc(C)cc(c1)OCCCO2)C(=O)C(=O)NCC(=O)N[C@H](C(=O)N(C)C)c1ccccc1` [Compound 74B] gave a pKi of 7.00 to 9.00.

Work on `CCC[C@@H](NC(=O)[C@@H]1Cc2ccc3cc2CN1C(=O)[C@H](C1CCCCC1)NC(=O)CCCCCCO3)C(=O)C(=O)NCC(=O)N[C@H](C(=O)N(C)C)c1ccccc1` [Compound 57A] ([Chg][Tic(7-O(CH2)6CO)][X2]G[Phg]-NMe2; lactam N-2) yielded a pKi of 4.00 to 7.00.

`CCC[C@H](NC(=O)[C@@H]1[C@H]2OC3CCCOc4cccc(c4)CC(=O)N[C@@H](C4CCCCC4)C(=O)N1C[C@@H]2O3)C(=O)C(=O)NCC(=O)N[C@H](C(=O)O)c1ccccc1` [Compound 29B] was tested, and the pKi was 7.00 to 9.00.

`CCCC[C@@H](NC(=O)[C@@H]1C[C@@H]2CN1C(=O)[C@H](C(C)(C)C)NC(=O)Cc1ccccc1OCCCCO2)C(=O)C(=O)NCC(=O)N[C@H](C(=O)N(C)C)c1ccccc1` [Compound 53A] gave a pKi of 4.00 to 7.00.

`CCCC(NC(=O)[C@@H]1C[C@@H]2CN1C(=O)[C@H](C1CCCCC1)NC(=O)Cc1cccc(c1)OCCCO2)C(=O)C(=O)NCC(=O)N[C@H](C(=O)OC(C)(C)C)c1ccccc1` (stereo partly shown) [Compound 2] gave a pKi of 7.00 to 9.00.

With `CCCC(NC(=O)[C@@H]1C[C@@H]2CN1C(=O)[C@H](C(C)C)NC(=O)Cc1cccc(c1)OCCC(C)(C)O2)C(=O)C(N)=O` (stereo partly shown) [Compound 97] the pKi was 4.00 to 7.00.

With `CCCC(NC(=O)C1C[C@@H]2CN1C(=O)C(C1CCCCC1)NC(=O)CCc1ccc(cc1)S(=O)(=O)N2)C(=O)C(=O)NCC(=O)N[C@H](C(=O)O)c1ccccc1` (stereo partly shown) [Compound 42] the pKi was 4.00 to 7.00.

For `CCCC(NC(=O)[C@@H]1C[C@@H]2CN1C(=O)[C@H](c1ccccc1)NC(=O)Cc1cccc(c1)OCCC(C)(C)O2)C(=O)C(N)=O` (stereo partly shown) [Compound 100], the pKi was 4.00 to 7.00.

`CCC[C@H](NC(=O)[C@@H]1Cc2ccc3cc2CN1C(=O)[C@H](C1CCCCC1)NC(=O)CCCCCCO3)C(=O)C(=O)NCC(=O)N[C@H](C(=O)N(C)C)c1ccccc1` [Compound 57B] ([Chg][Tic(7-O(CH2)6CO)][X1]G[Phg]-NMe2; lactam N-2) was tested, and the pKi was 7.00 to 9.00.

`CCC[C@@H](NC(=O)[C@@H]1C[C@@H]2CN1C(=O)[C@H](C1CCCCC1)NC(=O)Cc1cccc(c1)OCCO2)C(=O)C(=O)NCC(=O)N[C@H](C(=O)N(C)C)c1ccccc1` [Compound 7A] gave a pKi of 4.00 to 7.00.

For `CCCC(NC(=O)[C@@H]1C[C@@H]2CN1C(=O)[C@H](C1CCCC1)NC(=O)Cc1cccc(c1)OCCC(C)(C)O2)C(=O)C(N)=O` (stereo partly shown) [Compound 105], the pKi was 4.00 to 7.00.

`CCCC(NC(=O)[C@@H]1C[C@@H]2CN1C(=O)[C@H](C1CCCCC1)NC(=O)Cc1cccc(c1)OCCC(C)(C)O2)C(=O)C(=O)NCC(=O)O` (stereo partly shown) [Compound 81] was tested, and the pKi was 4.00 to 7.00.

Molecule `CCCC(NC(=O)[C@@H]1C[C@@H]2CN1C(=O)[C@H](C(C)CC)NC(=O)Cc1cccc(c1)OCCC(C)(C)O2)C(=O)C(N)=O` (stereo partly shown) [Compound 103] has a pKi of 4.00 to 7.00.

With `CCC[C@@H](NC(=O)[C@@H]1C[C@@H]2CN1C(=O)[C@H](C1CCCCC1)NC(=O)Cc1cccc(c1)OCCCCO2)C(=O)C(=O)NCC(=O)N[C@H](C(=O)N(C)C)C1Cc2ccccc2C1` [Compound 70A] the pKi was 4.00 to 7.00.

`CCC[C@H](NC(=O)[C@@H]1C[C@@H]2CN1C(=O)[C@H](C1CCCCC1)NC(=O)N(C)Cc1cccc(c1)OCCC(C)(C)O2)C(=O)C(=O)NCC(=O)N[C@H](C(=O)N(C)C)c1ccccc1` [Compound 67B] showed a pKi of 7.00 to 9.00.

Molecule `CCCC(NC(=O)[C@@H]1C[C@@H]2CN1C(=O)[C@H](C(C)(C)C)NC(=O)Cc1cccc(c1)OCCCO2)C(=O)C(=O)NCC(=O)N[C@H](C(=O)OC(C)(C)C)c1ccc(NS(N)(=O)=O)cc1` (stereo partly shown) [Compound 18] has a pKi of 7.00 to 9.00.

With `CCCC(NC(=O)[C@@H]1C[C@@H]2CN1C(=O)C(C1CCC(C(=O)O)CC1)NC(=O)Cc1cccc(c1)OCCCO2)C(=O)C(=O)NCC(=O)N[C@H](C(=O)N(C)C)c1ccccc1` (stereo partly shown) [Compound 15] the pKi was 7.00 to 9.00.

In the case of `CCC[C@@H](NC(=O)[C@@H]1C[C@@H]2CN1C(=O)[C@H](C1CCCCC1)NC(=O)Cc1ccc(C)c(c1)OCCCO2)C(=O)C(=O)NCC(=O)N[C@H](C(=O)N(C)C)c1ccccc1` [Compound 75A], the pKi was 4.00 to 7.00.
